Source: PubChem BioAssay
miR-21 reporter – miR-21 reporter, rising signal | AID 2288 | HeLa miR-21 FLuc reporter, luciferase, 48 h | 340,000 tested, under 10 active | Potency, µM (doses to about 38.3 µM), for inactives: at the top dose reporter change, positive = more light; active = well fitted rising curve with a large enough effect; inconclusive = small, poorly fitted or top-dose-only effect; inactive = no such curve, though single readings can be large or run the other way;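 note: % of control where 0% means no effect; miR-21 action dims this reporter so a rising signal means less miR-21 action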
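HeLa cells endogenously expressing miR-21, stably carrying CMV-driven firefly luciferase with a downstream miR-21 binding site, 2000 cells/well. Titrations up to approximately 40 uM, 48 hours; luciferase luminescence read.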
Lamin A splicing – modulators of lamin A splicing; HeLa LMNA splicing GFP/RFP minigene ratio, 48 h; Potency, µM (top dose mostly 46.1 µM), for inactives: at the top dose ratio change, negative = inhibition, most hits filed as inhibitors; 0.01% of 200,000 active; active means well fitted inhibition curve with a large enough effect in the signal ratio, with a control signal flat, not every such curve was filed as active; inconclusive means small, poorly fitted or top-dose-only effect, or effect the other way, or a change in a side signal; the % refers to the signal ratio; further: potency means the concentration at half of the fitted maximal effect; on the % scale 0 is the no-effect control and ±100 the full control effect
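S3 HeLa cells stably expressing lamin A-EGFP splicing minigene plus DsRed2, 600 cells/well, 48 h compound exposure at 37C. Laser-scanning cytometry; analysed as GFP (500-530 nm)/RFP (575-640 nm) total intensity ratio; 0.5% DMSO vehicle.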
KDM4E inh – inhibitors of human JMJD2E histone demethylase | B2RXH2 | JMJD2E catalytic domain, FDH-coupled NADH fluorescence (FDH is formaldehyde dehydrogenase) | Potency, µM (doses to about 57.1 µM), for inactives: top-dose activity change, negative = inhibition, most hits filed as inhibitors | 1.6% of 230,000 active | AID 2147; active means well fitted inhibition curve with a large enough effect, not every such curve was filed as active; inconclusive means small, poorly fitted or top-dose-only effect, or another doubt; inactive means no such curve, though single readings can be large or run the other way;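 further: potency means the concentration at half of the fitted maximal effect; 0% = wells with enzyme and -100% = buffer wells without enzyme; nearly all actives have a fitted effect of over 50% in size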
G9a block – inhibitors of human histone lysine methyltransferase G9a. Q96KQ7. G9a H3K9 monomethylation, AlphaScreen, 2 h. Potency, µM (titrated, usually from 102 µM), for inactives: top-dose activity, negative = inhibition, hits mostly inhibitors. 8.8% of 350,000 active. AID 504332; further: potency means the concentration at half of the fitted maximal effect; on the % scale 0 is the no-effect control and ±100 the full control effect; nearly all actives have a fitted effect of over 75% in size
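Quantitative HTS format: methyltransferase activity on a biotin-tagged H3K9 peptide is measured by AlphaScreen, using a rabbit anti-monomethyl-H3K9 antibody with streptavidin donor and anti-IgG acceptor beads. Final levels are 20 nM enzyme, 500 nM peptide, 20 uM SAM; 2 h RT.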
Sfp inh – Sfp phosphopantetheinyl transferase inhibition; Q9F4F7; Biochemical Sfp PPTase activity, qHTS; Potency, µM, for the others: max response, negative = inhibition, usual class: inhibitors; hit rate 3.5% among 310,000; active = well fitted inhibition curve with a large enough effect; inconclusive = small, poorly fitted or top-dose-only effect, or another doubt; inactive = no such curve, though single readings can be large or run the other way;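 also: the enzyme is Sfp with the accession as filed and its product quenches rhodamine fluorescence; potency is read from the fitted curve at half-maximal effect; 0% = enzyme reaction without inhibitor and -100% = no enzyme wells; top concentration of the series not given in the record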
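Fluorescence-quenching assay with 15 nM Sfp, 5 uM rhodamine-CoA and 12.5 uM BHQ-2-labelled ybbR peptide in pH 7.6 Hepes/MgCl2 buffer. Enzyme was pre-incubated with compound for 15 min at room temperature. Rate was taken from the 30-min fluorescence change (525/598 nm).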
ALDH1A1 inh – ALDH1A1 (human) enzyme inhibition | AID 1030 | 7.3% of 220,000 active | Potency, µM (series often up to 75.3 µM), inactives show at the top dose activity, negative = inhibition, most hits filed as inhibitors | P00352 | Purified ALDH1A1, NADH fluorescence, propionaldehyde substrate; active means well fitted inhibition curve with a large enough effect, not every such curve was filed as active; inconclusive means small, poorly fitted or top-dose-only effect, or another doubt; inactive means no such curve, though single readings can be large or run the other way;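 further: potency means the concentration at half of the fitted maximal effect; plate controls were no enzyme wells and a reference inhibitor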
* marks the source's active call; other numbers are inactive results; ? = inconclusive; . = no result; ! = not active in a repeat; [ ] = another dose, or the depositor's remark. Shown are actives, neighbours in structure and some others; about 13% of the full set was active somewhere. Unless noted, the call rests on the fitted dose curve; in most records, active means well fitted curve in the direction sought with a large enough effect; inconclusive means small, poorly fitted or top-dose-only effect, or another doubt; inactive means no such curve, though single readings can be large; an effect the other way counts as inactive or inconclusive.

Each structure is followed by: miR-21 reporter | Lamin A splicing | KDM4E inh | G9a block | Sfp inh | ALDH1A1 inh
1) CCOCCCN(Cc1cc2cc(C)cc(C)c2[nH]c1=O)C(=O)N(CC)CC
  -5% | -7% | -13% | -7%[59 µM] | 18% | ?
2) CCc1cc2cc(C)cc(C)c2[nH]c1=S
  1% | . | 5% | 1.4µM* | 56µM* | 9%
3) COc1ccc(OC)c([N+](=O)[O-])c1C(N)=O
  -1% | 12%[46 µM] | ? | 32µM* | -5% | 1%
4) O=C(COC(=O)/C=C/c1cccc(Cl)c1)Nc1ccc2[nH]c(=O)[nH]c2c1
  . | . | . | 32µM* | . | .
5) O=C(COC(=O)/C=C/c1ccc([N+](=O)[O-])cc1)Nc1ccc2[nH]c(=O)[nH]c2c1
  . | . | . | 50µM* | . | .
6) O=C(COC(=O)/C=C/c1cccc(F)c1)Nc1ncccn1
  2% | . | 4% | 71µM* | -1% | .
7) O=C(COC(=O)c1ccc(Br)o1)Nc1ccc2[nH]c(=O)[nH]c2c1
  . | . | . | 17%[12.7 µM] | . | .
8) O=C(COC(=O)/C=C/c1ccc(Br)o1)Nc1ccc2[nH]c(=O)[nH]c2c1
  . | . | . | 35µM* | . | .
9) O=C(COC(=O)/C=C/c1cccc(F)c1)Nc1ccc2[nH]c(=O)[nH]c2c1
  . | . | . | -37%[59 µM] | . | .
10) O=C(O)COc1ccccc1/C=N/NC(=O)CSc1nc2ccccc2n1Cc1ccc(Cl)cc1
  -15% | . | -14% | . | -7% | .
11) Cc1ccnc(NC(=O)CCNC(=O)c2ccccc2Cl)c1
  -40% | . | . | 24% | 16% | .
12) CC(C)(C)NC(=O)N1CCC(C(=O)O)CC1
  0% | ? | . | -15%[59 µM] | . | .
13) CCN(Cc1nc(-c2ccc(OC)c(OC)c2)no1)C(=O)c1ccc2c(c1)OCO2
  -15% | . | . | ? | 15% | .
14) CCCn1c(C)nc2c(N3CCCN(Cc4ccccc4)CC3)nc(C)nc21
  . | . | 4% | . | 19% | -1%
15) CCCn1c(-c2ccc(F)cc2)nc2c(N3CCCN(Cc4ccccc4)CC3)nc(C)nc21
  . | . | ? | . | 22µM* | ?
16) CCCn1c(N)c(NCCN2CCOCC2)c(=O)n(CC(=O)NCc2ccccc2)c1=O
  2% | -10%[46 µM] | 4% | 23% | -9% | -3%
17) O=C1CC(Nc2ccc(N3CCOCC3)cc2)C(=O)N1CCc1ccccc1 (stereo unspecified)
  -5% | 8% | -30% | -11%[59 µM] | 3% | 25µM*
18) O=C1CC(Nc2ccccc2)C(=O)N1CCc1ccccc1 (stereo unspecified)
  -8% | -1% | -3% | 6%[59 µM] | 19% | 3%
19) O=C1CC(Nc2ccc(N3CCOCC3)cc2)C(=O)N1c1cccc(C(F)(F)F)c1 (stereo unspecified)
  -11% | -9% | ? | 14µM* | ? | 8.9µM*
20) COc1cccc(N2C(=O)CC(Nc3ccc(N4CCOCC4)cc3)C2=O)c1 (stereo unspecified)
  -4% | 17% | -13% | 0%[59 µM] | ? | -1%
21) COc1cc(SC)ccc1C(=O)Nc1ccon1
  -56% | -14% | -7% | ? | 1% | 20µM*
22) COc1cc(SC)ccc1C(=O)NCCOc1c(C)cc(C)cc1C
  -20% | ? | 188% | 44% | 50µM* | -3%
23) COc1cc(SC)ccc1C(=O)NCCOc1ccc(Cl)cc1
  -24% | ? | -7% | 35%[59 µM] | -6% | -11%
24) CCc1ccc(-n2nc(CO)c(C(=O)NCCc3ccccc3)n2)cc1
  -2% | . | . | 12%[59 µM] | . | .
25) Cc1ccc(OC(=O)c2cccc(C(=O)Oc3ccc(C)cn3)n2)nc1
  -4% | 15% | ? | ? | 50µM* | ?
26) COc1cc(CC(=O)O)ccc1O
  1% | -18% | 4% | -6%[12.7 µM] | -12% | 25µM*!
27) COC(=O)Cc1sc(-c2ccccn2)nc1-c1ccccc1
  -1% | . | ? | 2.2µM* | 22µM* | ?
28) COC(=O)Cc1ccc2sc(-c3ccccc3)nc2c1
  -41% | 16% | -4% | 127% | ? | 4%
29) CCN1CCN(c2nc(C)nc3c2sc(=S)n3C)CC1
  -16% | -10% | 0% | 6.3µM* | 2.8µM* | ?
30) Cc1cc(C(=O)CN2C(=O)c3ccccc3S2(=O)=O)c(C)n1CC1CCCO1 (stereo unspecified)
  ? | 9% | 9% | 50µM* | -11% | ?
31) CCn1c(SCC(=O)c2cc(C)n(CC3CCCO3)c2C)nc2ccccc21 (stereo unspecified)
  -47% | ? | -18% | 18µM* | -12% | ?
32) Cc1cc(C(=O)CSc2nc3ccccc3c(=O)n2C)c(C)n1CC1CCCO1 (stereo unspecified)
  ? | ? | 0% | ? | 16% | ?
33) Cn1c(NC(=O)COc2ccccc2)cc(=O)n(C)c1=O
  1% | 7% | -3% | ? | 8% | 25µM*
34) Cn1c(NC(=O)CCc2ccccc2)cc(=O)n(C)c1=O
  -63% | 8% | 2% | -17% | 6% | ?
35) Cn1c(NC(=O)c2ccccc2F)cc(=O)n(C)c1=O
  -12% | -4% | -2% | 56µM* | 7% | 6%
36) Cn1c(NC(=O)c2ccccc2)cc(=O)n(C)c1=O
  -7% | -5% | 7% | -37% | 22% | 9%
37) O=C1c2[nH]nc(-c3ccccc3O)c2C(c2cccc(Br)c2)N1Cc1ccncc1 (stereo unspecified)
  ? | . | . | 1%[59 µM] | . | .
38) O=c1cc[nH]c2c(Cl)cccc12
  -25% | . | -16% | 22%[0.501 µM] | 8% | -1%
39) O=c1cc[nH]c2c1ccc1c(=O)cc[nH]c12
  0% | . | . | 45µM* | 3% | .
40) CC(=O)C1=C(c2ccccc2)NC(=O)NC1c1cccs1 (stereo unspecified)
  6% | . | . | . | 6% | .
41) CCOC(=O)c1cnc(SCC(=O)N2CCc3ccccc32)nc1N
  1% | 13% | 11% | ? | -4% | -3%
42) CCOC(=O)c1cnc(SCC(=O)N2CCN(c3ccccc3)CC2)nc1N
  -4% | ? | -6% | 35µM* | -7% | -2%
43) CCOC(=O)c1cnc(SCC(=O)Nc2ccc(N3CCOCC3)cc2)nc1N
  -2% | 5% | 4% | 25µM* | 5% | 0%
44) CCOC(=O)c1cnc(SCC(=O)Nc2ccc3c(c2)OCCO3)nc1N
  -5% | ? | 1% | 9%[2.33 µM] | 13% | ?
45) CCOC(=O)c1c(-c2ccc(F)cc2)csc1NC(=O)C1CC=CCC1C(=O)O (stereo unspecified)
  -6% | -7%[46 µM] | ? | 16µM* | 40µM* | ?
46) CCOC(=O)c1c(-c2ccc(F)cc2)csc1NC(=O)CCN1CCOCC1
  -7% | -7% | 25µM* | 8.9µM* | ? | ?
47) CCOC(=O)c1c(-c2cccs2)csc1NC(=O)CSc1ncn[nH]1
  11% | -9% | -15% | ? | -34% | 20µM*
48) CCOC(=O)c1c(-c2cccs2)csc1NC(=O)CNCCN1CCOCC1
  -12% | 9% | 22µM* | 78%[59 µM] | -17% | -4%

Complete entries, quoted from the list. Screens in order: miR-21 reporter | Lamin A splicing | KDM4E inh | G9a block | Sfp inh | ALDH1A1 inh
CC(=O)C1=C(c2ccccc2)NC(=O)NC1c1cccs1 (stereo unspecified) across the screens: 6% | . | . | . | 6% | .
CCOC(=O)c1cnc(SCC(=O)Nc2ccc3c(c2)OCCO3)nc1N across the screens: -5% | ? | 1% | 9%[2.33 µM] | 13% | ?
CCn1c(SCC(=O)c2cc(C)n(CC3CCCO3)c2C)nc2ccccc21 (stereo unspecified) across the screens: -47% | ? | -18% | 18µM* | -12% | ?

Grouped by structure, the entries above with a nitro group on carbon.
Each structure is followed by: miR-21 reporter | Lamin A splicing | KDM4E inh | G9a block | Sfp inh | ALDH1A1 inh
3) COc1ccc(OC)c([N+](=O)[O-])c1C(N)=O
  -1% | 12%[46 µM] | ? | 32µM* | -5% | 1%
5) O=C(COC(=O)/C=C/c1ccc([N+](=O)[O-])cc1)Nc1ccc2[nH]c(=O)[nH]c2c1
  . | . | . | 50µM* | . | .
